pIC50: −log10 of the molar value.
Assays:
mouse WT TYK2 = mouse WT TYK2 (Mus musculus, UniProt Q9R117); test: JAK Caliper enzyme end-point IC50 assay, mouse WT TYK2; format: biochemical; conditions: read-out: Mouse WT TYK2 IC50; ATP 1 mM; geometric mean ± SD
human WT TYK2 = human WT TYK2 (Homo sapiens, UniProt P29597); test: JAK Caliper enzyme end-point IC50 assay, human WT TYK2; format: biochemical; conditions: read-out: Human WT TYK2 IC50; ATP 1 mM; geometric mean ± SD

Chains of the proteins cited; added tags and fusions are not shown. Residues count along the entry.
UniProt Q9R117, 894-1166 limits assumed: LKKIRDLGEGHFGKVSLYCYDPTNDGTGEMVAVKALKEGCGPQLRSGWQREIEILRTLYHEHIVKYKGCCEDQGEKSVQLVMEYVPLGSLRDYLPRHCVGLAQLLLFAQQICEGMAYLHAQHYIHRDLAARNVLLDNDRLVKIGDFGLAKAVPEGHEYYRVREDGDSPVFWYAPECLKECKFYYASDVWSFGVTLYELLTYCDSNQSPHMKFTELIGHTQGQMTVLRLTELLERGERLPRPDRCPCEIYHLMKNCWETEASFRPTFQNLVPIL
UniProt P29597, 897-1176 limits assumed: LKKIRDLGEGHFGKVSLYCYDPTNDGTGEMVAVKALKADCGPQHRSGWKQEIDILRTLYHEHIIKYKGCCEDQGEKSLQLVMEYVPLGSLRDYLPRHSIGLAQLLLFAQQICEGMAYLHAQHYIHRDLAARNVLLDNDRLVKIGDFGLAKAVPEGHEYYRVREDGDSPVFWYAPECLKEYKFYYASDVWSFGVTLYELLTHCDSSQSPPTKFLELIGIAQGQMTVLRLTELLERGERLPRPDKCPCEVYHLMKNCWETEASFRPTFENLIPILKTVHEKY

SMILES: C[C@@H]1[C@@H]2CN(c3nc(Nc4cnn(CCO)c4)ncc3F)C[C@]12NC(=O)[C@@H]1C[C@H]1C#N
- pIC50 (mouse WT TYK2): 5.79

SMILES: CCNC(=O)c1ccc(Nc2nccc(N3CC4CC(C3)N4C(=O)C(C)(F)F)n2)cc1
- pIC50 (mouse WT TYK2): 5.94
- pIC50 (human WT TYK2): 7.18

SMILES: O=C(N[C@@]12C[C@@H]1CN(c1nc(Nc3cnn(CCO)c3)ncc1Cl)C2)C1CC1
- pIC50 (mouse WT TYK2): 6.32

SMILES: C[C@@H]1[C@@H]2CN(c3nc(Nc4cn[nH]c4)ncc3F)C[C@]12NC(=O)[C@@H]1CC1(F)F
- pIC50 (mouse WT TYK2): 5.80
- pIC50 (human WT TYK2): 7.48

SMILES: Cn1cc(Nc2nccc(N3CC4CCC(C3)N4C(=O)NCCC#N)n2)cn1
- pIC50 (mouse WT TYK2): 6.03
- pIC50 (human WT TYK2): 7.22

SMILES: Cn1cc(Nc2nccc(N3CC4CCC(C3)N4C(=O)NCC(F)(F)F)n2)cn1
- pIC50 (mouse WT TYK2): 6.26

SMILES: CCNC(=O)c1ncc(Nc2ncc(F)c(N3CC4CCC(C3)N4C(=O)C3CC3)n2)cc1C
- pIC50 (mouse WT TYK2): 5.62
- pIC50 (human WT TYK2): 7.24

SMILES: Cn1cc(Nc2nccc(N3CC4CCC(C3)N4C3CC(C#N)C3)n2)cn1 (stereo not shown)
- pIC50 (mouse WT TYK2): 6.11
- pIC50 (human WT TYK2): 7.33

SMILES: CNC(=O)c1ncc(Nc2nccc(N3CC4CCC(C3)N4C(=O)[C@@H]3CC3(F)F)n2)cc1F
- pIC50 (mouse WT TYK2): 6.34
- pIC50 (human WT TYK2): 7.57

SMILES: C[C@@H]1[C@@H]2CN(c3nc(Nc4cnn(C)c4)ncc3F)C[C@]12NC(=O)[C@@H]1C[C@H]1C#N
- pIC50 (mouse WT TYK2): 5.87

SMILES: CCNC(=O)N1C2CCC1CN(c1ccnc(Nc3cnn(C)c3)n1)C2
- pIC50 (mouse WT TYK2): 6.01

SMILES: Cc1cc(Nc2ncc(F)c(N3C[C@H]4[C@@H](C)[C@@]4(NC(=O)[C@@H]4C[C@H]4C#N)C3)n2)cnc1CCO
- pIC50 (mouse WT TYK2): 5.90
- pIC50 (human WT TYK2): 7.39

SMILES: CNC(=O)c1ncc(Nc2nccc(N3CC4CCC(C3)N4C(=O)[C@@H]3CC3(F)F)n2)cc1C
- pIC50 (mouse WT TYK2): 6.31
- pIC50 (human WT TYK2): 7.70

SMILES: Cn1cc(Nc2nccc(N3CC4CCC(C3)N4C(=O)C3CC3)n2)cn1
- pIC50 (mouse WT TYK2): 5.97

Source: PMC7265552 (Scientific Reports, 2020)
